In patent publication US20050276794A1, “Composition and method for improving pancreatic islet cell survival” (priority 2004, published 2005):

Tested on: isolated islet cells
Conditions: at much higher concentrations than about 1 to about 5 μM
Protocol: Single islets were hand-picked from a Petri dish under microscopy and transferred to wells in a 96-well microculture plate. Micronutrients comprising alpha-tocopherol (50 μM), gamma-tocopherol (50 μM), and succinate (5 μM) were added to wells in various combinations, with regular media (no added micronutrients) used as control. Islet cell survival was indicated by maintenance of a more compact cell mass, with disruption of the cell mass indicating islet cell death detected by microscopic means. […] Samples are shown in duplicate (a—middle panel, and b—bottom panel), with the corresponding control in the top panel.

Cc1c(C)c2c(c(C)c1OC(=O)CCC(=O)O)CC[C@@](C)(CCC[C@H](C)CCC[C@H](C)CCCC(C)C)O2 [alpha-tocopheryl succinate]
toxicity to cells: may be toxic to cells
